Earlier results in patent US20140171436A1, “TREATMENT OF ANTIFOLATE NEUROTOXICITY” (Syntrix Biosystems, Inc., priority 2003, published 2014).

Biological target: NMDA receptor
Conditions: read-out: Ki NMDAR; cited from earlier work

COc1ccc2c(c1)[C@@]13CCCC[C@H]1[C@@H](C2)N(C)CC3 [dextromethorphan, (+)-3-methoxy-N-methylmorphinan]
Ki: 7 µM
